pEC50: −log10 of the molar value.

Chains of the proteins cited; added tags and fusions are not shown. Residues count along the entry.
UniProt Q9NYK1, 27-1049 limits assumed: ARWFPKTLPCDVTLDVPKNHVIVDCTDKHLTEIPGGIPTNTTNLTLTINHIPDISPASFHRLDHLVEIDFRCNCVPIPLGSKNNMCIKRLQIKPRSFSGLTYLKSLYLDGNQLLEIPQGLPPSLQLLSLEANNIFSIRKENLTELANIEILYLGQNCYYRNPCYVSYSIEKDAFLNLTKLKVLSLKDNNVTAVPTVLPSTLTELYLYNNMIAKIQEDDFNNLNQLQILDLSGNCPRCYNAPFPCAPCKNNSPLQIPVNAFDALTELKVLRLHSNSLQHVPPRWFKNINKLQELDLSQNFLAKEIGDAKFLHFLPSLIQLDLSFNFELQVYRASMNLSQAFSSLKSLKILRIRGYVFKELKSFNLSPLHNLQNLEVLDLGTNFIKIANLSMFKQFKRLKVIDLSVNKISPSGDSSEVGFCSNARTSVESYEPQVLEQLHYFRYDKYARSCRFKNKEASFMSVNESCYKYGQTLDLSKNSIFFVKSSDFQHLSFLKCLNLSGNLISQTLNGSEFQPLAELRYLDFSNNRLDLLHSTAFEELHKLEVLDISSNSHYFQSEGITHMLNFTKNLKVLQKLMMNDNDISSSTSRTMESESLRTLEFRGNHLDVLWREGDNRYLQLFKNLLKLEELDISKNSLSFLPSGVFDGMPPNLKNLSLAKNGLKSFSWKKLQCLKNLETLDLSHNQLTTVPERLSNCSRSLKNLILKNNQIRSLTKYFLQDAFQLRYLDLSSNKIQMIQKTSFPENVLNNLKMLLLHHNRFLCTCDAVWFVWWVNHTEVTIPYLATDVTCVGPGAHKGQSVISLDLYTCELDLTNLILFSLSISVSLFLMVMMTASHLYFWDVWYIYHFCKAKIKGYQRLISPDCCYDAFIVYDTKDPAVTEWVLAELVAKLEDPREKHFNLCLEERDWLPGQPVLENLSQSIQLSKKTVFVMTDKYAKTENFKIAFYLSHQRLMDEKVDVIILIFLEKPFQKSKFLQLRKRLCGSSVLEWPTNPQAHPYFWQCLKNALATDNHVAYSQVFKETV

As a reminder, the pEC50 is the negative decadic logarithm of the EC50, by convention in mol/L.

The target in this test is human TLR7 (Homo sapiens, UniProt Q9NYK1). The test can be described thus: Agonistic activity on human TLR7 in HEK-Blue hTLR7 cell line (QUANTI-Blue reporter). The conditions noted are these: read-out: EC50 value of the agonistic effect on human TLR7; HEK-Blue hTLR7 cells, 16-22 h incubation, absorption at 630 nm. As to the method:
The TLR7 agonistic activity of the compounds of the invention in HEK-Blue™ hTLR7 cell line with stable expression of human TLR7 were assayed using the following method: • 1. Weighed the test compounds and prepared stock solutions with DMSO (Sigma) at a concentration of 10 mM. […] The highest concentration was 1 mM. • 2. The test compounds and DMSO control were diluted 10-fold in DPBS buffer (Gibco) and then added to a 96-well cell culture plate (Corning) at a volume of 20 μL/well. • 3. HEK-Blue™ hTLR7 cells (Invivogen) were digested with cell separation solution (Gibco), and counted (TC-20 cell counter, Bio-rad). Cells were diluted to 4.4E5/ml using DMEM cell medium (Gibco). Added the cells to a 96-well cell culture plate at a volume of 180 μL/well. The cells were incubated for 16-22 h at 37° C. in a 5% CO2 incubator. • 4. Prepared QUANTI-Blue detection reagent (Invivogen), and added into a new 96-well plate at a volume of 180 μL/well. Twenty μL of cell culture supernatant was transferred from the cell culture plate and added to the 96-well plate and incubated at 37° C. for 1-3 hours. • 5. Neo2 multifunctional microplate reader (Bio-Tek) was used to measure the optical absorption at 630 nm, and the EC50 was calculated by GraphPad Prism.
The agonistic effect of the compounds of the invention on human TLR7 can be determined by the above experiments, and the measured EC50 value is shown in Table 1.
For `CC(C)(C)N1Cc2c3cc(cc2C1=O)Cn1c(=O)[nH]c2c(N)nc(nc21)S(=O)(=O)CC/C=C/C3`, the pEC50 is 8.70.

On to `CC(C)(C)N1Cc2c3cc(cc2C1=O)Cn1c(=O)[nH]c2c(N)nc(nc21)SCC/C=C/C3`, for which the pEC50 was 7.19.

For `CC(=O)N1CCc2c3cc(cc2C1)Cn1c(=O)[nH]c2c(N)nc(nc21)OCCCCC3`, the negative-log EC50 (pEC50) was 8.15.

`CC(C)(C)N1Cc2c3cc(cc2C1=O)Cn1c(=O)[nH]c2c(N)nc(nc21)NCC/C=C/C3`: the negative-log EC50 (pEC50) is 5.75.

Consider `Nc1nc2nc3c1[nH]c(=O)n3Cc1cc(c3c(c1)C(=O)N(CC(=O)O)C3)C/C=C/CCO2`, for which the pEC50 is 8.70.

Take `CC(C)(C)N1Cc2c3cc(cc2C1=O)Cn1c(=O)[nH]c2c(N)nc(nc21)NCC/C=C\C3`: the pEC50 is 6.53.

Consider `CC(C)(C)N1Cc2c3cc(cc2C1=O)Cn1c(=O)[nH]c2c(N)nc(nc21)S(=O)(=O)CC/C=C\C3`, for which the pEC50 was 9.00.

The values are drawn from patent US20240124486A1, “MACROCYCLIC TLR7 AGONIST, PREPARATION METHOD THEREFOR, PHARMACEUTICAL COMPOSITION AND USE THEREOF” (SHANGHAI VISONPHARMA CO., LTD., priority 2020, published 2024).
